PMC8878317, “Chemogenomics identifies acetyl-coenzyme A synthetase as a target for malaria treatment and prevention” (Cell Chemical Biology, 2022)

Tested on: histone acetylation in P. falciparum 3D7-A10
Assay: Histone acetylation Western blot, wild-type 3D7-A10
Format: cell-based
Settings: trophozoites, 3 h exposure

SMILES: CCN(CC)S(=O)(=O)c1ccc(Cl)c(C(=O)Nc2ccc3nc(C)sc3c2)c1 [MMV019721]
- acetylation of H4K8ac, H3K9ac and tetra-acetylated H4 (H4Ac4) histone markers relative to DMSO: dose-dependent reduction

SMILES: O=C(NNC(=O)c1csnn1)c1ccc(Cl)cc1 [MMV084978]
- acetylation of H4K8ac, H3K9ac and tetra-acetylated H4 (H4Ac4) histone markers relative to DMSO: dose-dependent reduction
